Read-outs that look alike come from different tables or passages of the source.
Legend:
[1] = tested on: narcotic side-effects of an overdose of the composition; assay: Example 7: IM naloxone reversal of narcotic effects (sedation, body temperature, heart rate) of a 5X overdose
[2] = 40 or 160 μg/kg IM hourly
[3] = tested on: post-operative pain
[4] = oxymorphone-treated, 4 day study period

In the case of `C=CCN1CC[C@]23c4c5ccc(O)c4O[C@H]2C(=O)CC[C@@]3(O)[C@H]1C5`, the “mean proportion of sedated canines” value ([1]; 16 through 24 hours, group 1 (40 μg/kg IM naloxone)) is reported as 0.698, the “mean proportion of sedated canines” value ([1]; 16 through 24 hours, group 2 (160 μg/kg IM naloxone)) is reported as 0.438 and the body temperature ([1]; 26 and 28 hours, after naloxone) is reported as 35.9±0.0976 °C. The “mean proportion of sedated canines” value ([1]; after cessation of naloxone, by 26 hours, both groups) was 1.0, the “mean HR, naloxone period higher than fentanyl only period” value ([1]; dog, in vivo) was 28.9±1.78 bpm and the “mean body temperature, naloxone period higher than fentanyl only period” value ([1]; dog, in vivo) was 2.19±0.0638 °C. The “odds of being sedated, 160 μg/kg relative to 40 μg/kg IM naloxone” value ([1]; dog, in vivo) was 0.353 fold, the heart rate ([1]; during IM naloxone reversal, 16 through 24 hr) was 101±2.41 bpm and the body temperature ([1]; during IM naloxone reversal, 16 through 24 hr, both groups) was 37.7±0.0578 °C. For the same compound, the heart rate ([1]; following termination of naloxone administration) was 83.1±3.31 bpm, the “HR, 160 μg/kg higher than 40 μg/kg IM naloxone” value ([1]; naloxone treatment time period) was 9.97±5.11 bpm and the “body temperature, 160 μg/kg higher than 40 μg/kg IM naloxone” value ([1]; naloxone treatment time period) was 0.412±0.123 °C. The “adverse effects of naloxone administration” value [2] was “No seizures or other adverse affects”.

In the case of `CN1CC[C@]23c4c5ccc(O)c4O[C@H]2C(=O)CC[C@@]3(O)[C@H]1C5`, the “Number of Adverse Events, Mild” value (Oxymorphone (N = 253)) is reported as 125, the “Number of Adverse Events, Moderate” value (Oxymorphone (N = 253)) is reported as 75 and the “Number of Adverse Events, Severe” value (Oxymorphone (N = 253)) is reported as 28. For the same compound, the “Number of Adverse Events, Total” value (Oxymorphone (N = 253)) was 228, the “canines with adverse events, number” value (oxymorphone-treated) was 84 canines and the “canines with adverse events, percent” value (oxymorphone-treated) was 33.7%. For the same compound, the “canines with sedation scores≧2” value (oxymorphone-treated, 1 hour post-extubation) was 70%, the canines moderately sedated (oxymorphone-treated, 12 hours) was 11% and the “canines with sedation scores≧2” value (oxymorphone-treated, 24 hours) was 7%. For the same compound, the incidence of emesis [4] was 1.6-8.7%, the incidence of hypothermia [4] was 1.4-9.5% and the mean pain score ([3]; 2 hours following extubation, oxymorphone-treated) was 2.64. The mean pain score ([3]; Day 4, oxymorphone-treated) was 1.28, the “Sum of pain intensity score, Max” value ([3]; Oxymorphone) was 72 and the “Sum of pain intensity score, Median” value ([3]; Oxymorphone) was 19. For the same compound, the “Sum of pain intensity score, Min” value ([3]; Oxymorphone) was 0, the “Treatment Failures, %” value ([3]; Oxymorphone 0.1-0.2 mg/kg SC every 6 hours, N = 251) was 10.76% and the “canines withdrawn due to severe adverse events” value ([3]; Oxymorphone (N = 253)) was 18 canines. The “Sum of pain intensity score, Mean” value ([3]; entire post-surgical period, Oxymorphone, N 65) was 21.662.

Reference: patent publication US8603984B2
